pIC50: −log10 of the molar value. Where “and” joins values, the source holds several entries; their conditions need not be identical. Identical values can stand only once.
Columns and labels:
[1] = biological target: BCL-2 (binding to BAD peptide) (Homo sapiens, UniProt P10415); experiment: SPR (Biacore) solution inhibition assay, BCL-2 binding to immobilized BAD peptide; details: read-out: BCL2_SPR IC50 BAD; biotinylated BAD peptide surface, 56 nM BCL-2, 25° C.; range = high and low IC50 values from multiple experiments
Excerpt: (§1) The present method includes utility of a Surface plasmon resonance (SPR)-based biosensor (Biacore™′ GE Healthcare, Uppsala, Sweden) to characterize BCL-2 inhibitors.
(§2) Biacore™ utilizes the phenomenon of surface plasmon resonance (SPR) to detect and measure binding interactions. In a typical Biacore experiment, one of the interacting molecules (ligand) is immobilized on a flexible dextran matrix while the interacting partner (analyte) is allowed to flow across that surface. A binding interaction results in an increase in mass on the sensor surface and a corresponding direct change in the refractive index of the medium in the vicinity of the sensor surface. Changes in refractive index or signal are recorded in resonance units (R.U.) Signal changes due to association and dissociation of complexes are monitored in a non-invasive manner, continuously and in real-time, the results of which are reported in the form of a sensorgram.
(§3) The SPR assay is configured to examine solution inhibition of BCL-2 binding to peptide derivatized sensor surfaces to generate IC50 values as a measure of inhibitor potency.
(§4) Biacore™ A100 (GE Healthcare, Uppsala, Sweden) was used to conduct all experiments reported herein. Sensor surface preparation and all interaction analyses experiments were performed at 25° C. Reagents were purchased from GE Healthcare. Running buffer containing 10 mM Hepes, pH7.4, 150 mM sodium chloride, 1.25 mM Dithiothreitol, 3% Dimethyl sulfoxide and 0.05% polysorbate 20 were utilized throughout all analyses.
(§5) Biotinylated BAK, BAD and NOXA peptides were diluted to 10 nM in running buffer and captured onto a sensor surface pre-derivatized with streptavidin (sensor chip SA) to peptide surface densities in the range 50-100 R.U. Peptide captured surfaces were blocked with 500 μM PEO2-Biotin.
(§6) Interaction analyses were performed by first equilibrating each sample within a 6 point three fold compound dilution series in the range 16 μM to […] with 56 nM BCL-2 for one hour during instrument start-up procedures. […]

Chains of the proteins cited; added tags and fusions are not shown.
UniProt P10415, whole entry: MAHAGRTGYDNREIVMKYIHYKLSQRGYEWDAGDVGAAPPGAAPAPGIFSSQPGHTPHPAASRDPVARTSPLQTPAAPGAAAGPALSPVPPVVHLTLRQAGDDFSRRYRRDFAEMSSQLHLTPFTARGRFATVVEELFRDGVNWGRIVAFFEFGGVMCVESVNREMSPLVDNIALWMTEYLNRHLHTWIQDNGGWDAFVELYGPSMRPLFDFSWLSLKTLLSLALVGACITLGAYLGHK

[2] = biological target: BCL-2 (binding to BAK peptide) (Homo sapiens, UniProt P10415); experiment: SPR (Biacore) solution inhibition assay, BCL-2 binding to immobilized BAK peptide; details: read-out: BCL2_SPR IC50 BAK; biotinylated BAK peptide surface, 56 nM BCL-2, 25° C.; range = high and low IC50 values from multiple experiments
Excerpt: as §1, §2, §3, §4, §5, §6

| pIC50 [1] | pIC50 [2] | Structure (SMILES) |
| --- | --- | --- |
| 6.19 | 6.43 to 6.44 | CCCCN(CCCC)C(=O)c1cc(C)n(-c2ccc(NC(=O)c3ccc4c(c3)S(=O)(=O)c3ccccc3C4=O)cc2C(=O)N2Cc3ccccc3C[C@H]2CO)n1 |
| 7.36 and 7.41 and 7.44 to 7.46 | 7.40 to 7.41 and 7.47 and 7.42 to 7.51 | CCCCN(CCCC)C(=O)c1cc(C)n(-c2ccc(NC(=O)Cc3ccc4ccccc4c3)cc2C(=O)N2Cc3ccccc3C[C@H]2CO)n1 |
| 6.22 | 6.32 to 6.34 | CCCCN(CCCC)C(=O)c1cc(C)n(-c2ccc(NC(=O)COC34CC5CC(CC(C5)C3)C4)cc2C(=O)N2Cc3ccccc3C[C@H]2CO)n1 |

From US20140357633A1, “COMPOUNDS FOR INHIBITING THE INTERACTION OF BCL2 WITH BINDING PARTNERS” (NOVARTIS AG, priority 2011, published 2014)
